75 molecules from PubChem BioAssay AID504894 (National Center for Advancing Translational Sciences (NCATS), 2011) can be followed below.

Only a part is listed here, and it is no random draw. Some structures show a salt or complex split into parts, the way the source records it. Activity calls are given as the source filed them. The call rests on the fitted dose curve; in most records, active means well fitted activation curve with a large enough effect; inconclusive means small, poorly fitted or top-dose-only effect, or another doubt; inactive means no such curve, though single readings can be large or run the other way.

The assay is described as follows: Activators of T cell receptors: qHTS campaign. Further: % of control where 0% means no effect. The settings on record: primary human leukocytes, anti-CD3, IL-2 HTRF, 48 h; at 9.22 µM unless noted. An excerpt:
Normally activation of naive T cells requires two signals. 1. A signal through the T cell receptor (TCR) which provides antigen specificity to the response. 2. Signals through co-stimulatory molecules, which are necessary for proliferation, survival and cytokine production. In the absence of co-stimulatory signals T cells are not effectively activated, and may even be rendered anergic or unresponsive to subsequent signaling. This lack of costimulation has been shown in multiple model systems to be a major factor in the limited strength and effectiveness of anti-tumor T cell responses. The goal of this project is to identify small molecule compounds that will stimulate T cell activation in the presence of TCR signaling but in the absence of co-stimulatory signals, thereby allowing activation of naive T cells in the absence of co-stimulation. Identification of such compounds would have clear experimental and clinical applications in instances where desirable antigen-specific immune responses are not generated due to a lack of co-stimulation, for example in the generation of anti-tumor responses. In collaboration between the National Cancer Institute and NIH Chemical Genomics Center, a high-throughput amenable screen was developed to discover small molecules that co-stimulate and activate human T cell receptors. The screen will be carried out using a novel homogeneous time resolved fluorescence energy transfer (HTRF) assay to measure production of the cytokine IL-2 by activated T cells and will be tested against the NIH Molecular Libraries Small Molecule Repository (MLSMR). NIH Chemical Genomics Center [NCGC] NIH Molecular Libraries Probe Centers Network [MLPCN] MLPCN Grant: MH090820-01 Assay Submitter (PI): Richard Hodes, National Cancer Institute, NIH
Primary human leukocytes are incubated with a-CD3 beads and compounds for 48 hr. The amount of secreted IL-2 is then assayed with a HTRF IL-2 kit. The presence of IL-2 cytokine captures the detection reagents and brings the a-IL-2-K and a-IL-2-d2 into close proximity. Upon excitation with 320nm light, the europium cryptate is capable of transferring energy to acceptor molecules within close proximity, resulting in acceptor molecule emission at 665nm.
In general terms: Quantitative high-throughput screening tests each substance at several concentrations.
On to `Cc1ccccc1NC1(C#N)CCN(Cc2ccccc2)CC1`, for which the activation of IL-2 secretion was inactive: -2.67%.

In the case of `Cn1c(=O)[nH]cc(N(CCCl)CCCl)c1=O`, the activation of IL-2 secretion is inactive: 2.07%.

Take `CN(C)c1ccc(C(=O)NCC2(N3CCCCC3)CCCCC2)cc1`: the activation of IL-2 secretion was inactive: 4.2%.

With `O=C(NCC1(N2CCCCC2)CCCCC1)c1ccco1`, the activation of IL-2 secretion is inactive: 0.495%.

`COc1cc(OC)cc(C(=O)NCC2(N3CCCCC3)CCCCC2)c1`: the activation of IL-2 secretion was inactive: -5.68%.

Consider `CC(=O)N(c1ccccc1)C1CCNCC1`, for which the activation of IL-2 secretion is inactive: 1.84%.

As to `Cc1ccc(NC2(C#N)CCN(Cc3ccccc3)CC2)cc1`, the activation of IL-2 secretion was inactive: 4.17%.

Regarding `Fc1ccccc1NC1CCN(Cc2ccccc2)CC1`, the activation of IL-2 secretion was inactive: 5.23%.

`Cc1ccc(C(=O)NCC2(N3CCCCC3)CCCCC2)o1`: the activation of IL-2 secretion was inactive: -7.49%.

On to `CCC(CO)(C(=O)OC1CN2CCC1CC2)c1ccccc1` (stereo not given), for which the activation of IL-2 secretion is inactive: -3.01%.

For `COc1cccc(C(=O)N(c2cc(C)cc(C)c2)C2CCN(C(=O)OC(C)(C)C)CC2)c1`, the activation of IL-2 secretion is inactive: -10.1%.

Regarding `COc1cc(OC)cc(C(=O)NCC2(N3CCOCC3)CCCCC2)c1`, the activation of IL-2 secretion is inactive: 2.87%.

With `CCOc1ncccc1C(=O)NCC1(N2CCOCC2)CCCCC1`, the activation of IL-2 secretion was inactive: 1.43%.

For `CCCOc1ccc(C(=O)NCC2(N(C)C)CCCCC2)cc1`, the activation of IL-2 secretion is inactive: -0.164%.

As for `O=C(O)C1(Nc2ccccc2)CCN(Cc2ccccc2)CC1`, the activation of IL-2 secretion was inactive: -2.41%.

Regarding `CC(C)(C)OC(=O)N1CCC(Nc2ccccc2)CC1`, the activation of IL-2 secretion is inactive: 1.08%.

For `N/C(=N\O)c1c(N)no[n+]1[O-]`, the activation of IL-2 secretion is inactive: 2.79%.

`O=C(O)c1cccc(Nc2c([N+](=O)[O-])cc([N+](=O)[O-])cc2[N+](=O)[O-])c1`: the activation of IL-2 secretion is inactive: -1.19%.

For `O=C(OC1CN2CCC1CC2)C1c2ccccc2C=Cc2ccccc21` (stereo not given), the activation of IL-2 secretion was inactive: 0.0201% [at 46.1 µM].

As for `CCc1cc(C(=O)NCC2(N3CCCCC3)CCCCC2)sc1C`, the activation of IL-2 secretion is inactive: -5.48%.

On to `O=C(NCC1(N2CCOCC2)CCCCC1)c1cc(Br)ccc1Cl`, for which the activation of IL-2 secretion was inactive: 4.15%.

As for `COc1ccc(C(=O)NCC2(N3CCOCC3)CCCCC2)cc1OC`, the activation of IL-2 secretion was inactive: -1.05%.

Regarding `Cc1cc(N(CCCl)CCCl)ccc1C=O`, the activation of IL-2 secretion was inactive: -5.36%.

In the case of `c1ccc(CN2CCC(Nc3ccccc3)CC2)cc1`, the activation of IL-2 secretion was inactive: -2.38%.

Consider `CN(C)C1(CNC(=O)c2cccc(C#N)c2)CCCCC1`, for which the activation of IL-2 secretion was inactive: -0.684%.

For the molecule `CC(C)(C)OC(=O)N1CCC(N(C(=O)c2ccccc2)c2ccc(Cl)cc2)CC1`, the activation of IL-2 secretion was inactive: -5.26%.

`N#Cc1ccc(C(=O)NCC2(N3CCCCC3)CCCCC2)cc1`: the activation of IL-2 secretion is inactive: -2.45%.

For `CCOC(=O)C(CC)C1=NC(C)(C)Cc2ccccc21.O=[N+]([O-])c1cc([N+](=O)[O-])c(O)c([N+](=O)[O-])c1` (stereo not given), the activation of IL-2 secretion is inactive: -1.32%.

Turning to `O=C(NCC1(N2CCCCC2)CCCCC1)c1cccc(C(F)(F)F)c1`, the activation of IL-2 secretion is inactive: 4.43%.

Consider `O=[N+]([O-])c1cc([N+](=O)[O-])c(NCC2CCS(=O)(=O)C2)c([N+](=O)[O-])c1` (stereo not given), for which the activation of IL-2 secretion was inactive: -0.688%.

In the case of `CC(C)c1ccc(C(=O)NCC2(N3CCOCC3)CCCCC2)cc1`, the activation of IL-2 secretion is inactive: -0.052%.

Regarding `COc1ccc(NC2CCN(C(=O)OC(C)(C)C)CC2)cc1`, the activation of IL-2 secretion is inactive: 7.39%.

In the case of `CN1CCN(CCOC(=O)C(O)(c2ccccc2)c2ccccc2)CC1`, the activation of IL-2 secretion was inactive: -4.82% [at 46.1 µM].

Take `O=C(NCC1(N2CCOCC2)CCCCC1)c1cc(=O)[nH]c2ccccc12`: the activation of IL-2 secretion is inactive: -2.74%.

As for `COc1cc(C(=O)NCC2(N3CCCCC3)CCCCC2)ccc1OC(F)F`, the activation of IL-2 secretion was inactive: -2.51%.

Regarding `O=C(NCC1(N2CCCCC2)CCCCC1)c1ccc(OC(F)F)cc1`, the activation of IL-2 secretion is inactive: -7.02%.

Consider `CSc1ccc(C(=O)NCC2(N3CCOCC3)CCCCC2)cc1`, for which the activation of IL-2 secretion is inactive: -9.99%.

As to `O=C(NCC1(N2CCCCC2)CCCCC1)c1cccc([N+](=O)[O-])c1`, the activation of IL-2 secretion is inactive: -2.38%.

As for `N#CC1(Nc2ccccc2)CCN(CCc2ccccc2)CC1`, the activation of IL-2 secretion is inactive: 6.65%.

Turning to `CCN1CCC(Nc2ccc(Cl)cc2)CC1`, the activation of IL-2 secretion is inactive: 5.54%.

Take `COc1ccc2c(c1O)-c1c(O)c(OC)cc3c1[C@H](C2)[N+](C)(C)CC3.O=[N+]([O-])c1cc([N+](=O)[O-])c([O-])c([N+](=O)[O-])c1[O-]`: the activation of IL-2 secretion was inactive: 1.52%.

Take `O=C(NCC1(N2CCCCC2)CCCCC1)c1cncc(Br)c1`: the activation of IL-2 secretion was inactive: 3.79%.

As to `CN1CCC(Nc2cccc(F)c2)CC1`, the activation of IL-2 secretion is inactive: 0.595%.

In the case of `O=C(OC1CN2CCC1CC2)c1ccc([N+](=O)[O-])cc1` (stereo not given), the activation of IL-2 secretion was inactive: 8.06%.

As to `CCCOc1ccc(C(=O)NCC2(N(C)C)CCCCC2)cc1OC`, the activation of IL-2 secretion is inactive: 5.57%.

Turning to `CN(C)c1cccc(C(=O)NCC2(N3CCCCC3)CCCCC2)c1`, the activation of IL-2 secretion was inactive: -0.193%.

Turning to `O=[N+]([O-])c1cc([N+](=O)[O-])c(OC2CCCCC2O)c([N+](=O)[O-])c1` (stereo not given), the activation of IL-2 secretion was inactive: -1.25%.

For `COc1ccc(CN(CCCl)CCCl)cc1Cl`, the activation of IL-2 secretion is inactive: -1.2%.

For `CC(C)c1ccc(NC2CCN(C(=O)OC(C)(C)C)CC2)cc1`, the activation of IL-2 secretion is inactive: 1.65%.

With `COc1cc(OC)c(C(=O)NCC2(N(C)C)CCCCC2)cc1OC`, the activation of IL-2 secretion was inactive: -2.85%.

Regarding `O=C(NCC1(N2CCOCC2)CCCCC1)c1cc2ccccc2o1`, the activation of IL-2 secretion is inactive: -4.46%.

Regarding `Cc1cc(C)cc(N(C(=O)c2ccccc2)C2CCN(C(=O)OC(C)(C)C)CC2)c1`, the activation of IL-2 secretion was inactive: 3.08%.

Regarding `O=C(NCC1(N2CCCCC2)CCCCC1)c1ccc(Cl)nc1`, the activation of IL-2 secretion was inactive: 3.24%.

Take `CCOC(=O)N1CCC(Nc2ccc(OC)cc2)CC1`: the activation of IL-2 secretion is inactive: -2.42%.

For `O=C1C(O)=C([N+](=O)[O-])C(=O)C(O)=C1[N+](=O)[O-]`, the activation of IL-2 secretion was inactive: 0.731%.

For the molecule `COc1ccc(Cl)cc1C(=O)NCC1(N2CCOCC2)CCCCC1`, the activation of IL-2 secretion was inactive: 7.53%.

`O=C(OC1CN2CCC1CC2)C1c2ccccc2Oc2ccccc21` (stereo not given): the activation of IL-2 secretion is inactive: -4.69%.

With `N#CC1(Nc2ccccc2)CCN(Cc2ccccc2)CC1`, the activation of IL-2 secretion was inactive: 2.15%.

For `O=C(NCC1(N2CCCCC2)CCCCC1)c1ccc(Cl)s1`, the activation of IL-2 secretion was inactive: -0.289%.

Turning to `O=C(NCC1(N2CCCCC2)CCCCC1)c1cccs1`, the activation of IL-2 secretion was inactive: 2.11%.

Take `O=C(NCC1(N2CCCCC2)CCCCC1)c1ccc(=O)[nH]c1`: the activation of IL-2 secretion is inactive: -4.94%.

For the molecule `CC(C)(C)OC(=O)N1CCC(N(C(=O)c2ccccc2)c2ccc(F)cc2)CC1`, the activation of IL-2 secretion is inactive: -0.562%.

With `COc1ccc(C(=O)NCC2(N3CCCCC3)CCCCC2)c(OC)c1OC`, the activation of IL-2 secretion was inactive: 3.2%.

Turning to `COc1ccc(C(=O)NCC2(N3CCCCC3)CCCCC2)cc1`, the activation of IL-2 secretion is inactive: 5.65%.

Consider `Cc1cccc(NC2(C#N)CCN(Cc3ccccc3)CC2)c1`, for which the activation of IL-2 secretion is inactive: -1.61%.

Regarding `CSc1ccccc1C(=O)NCC1(N2CCCCC2)CCCCC1`, the activation of IL-2 secretion was inactive: -3.77%.

As to `COc1cc(C(=O)NCC2(N(C)C)CCCCC2)ccc1OC(F)F`, the activation of IL-2 secretion was inactive: -0.263%.

`CCOC(=O)N1CCC(Nc2cccc(C)c2)CC1`: the activation of IL-2 secretion is inactive: 5.2%.

For the molecule `CCOc1ccc(C)cc1CN(CCCl)CCCl`, the activation of IL-2 secretion is inactive: 2.11%.

As to `O=C1CCN(Cc2ccccc2)CC1`, the activation of IL-2 secretion is inactive: 1.97%.

On to `CCOC(=O)N1CCC(Nc2ccc(F)cc2)CC1`, for which the activation of IL-2 secretion was inactive: -1.79%.

As to `COc1ccc(NC2CCN(CCc3ccccc3)CC2)c(OC)c1`, the activation of IL-2 secretion is inactive: 7.38%.

With `O=C(NCC1(N2CCCCC2)CCCCC1)c1ccc(F)cc1`, the activation of IL-2 secretion is inactive: -6.8%.

`CCCCOc1ccc(C(=O)NCC2(N3CCOCC3)CCCCC2)cc1`: the activation of IL-2 secretion is inactive: -6.37%.

For `O=P1(N(CCCl)CCCl)SCCCS1`, the activation of IL-2 secretion is inactive: -3.67%.
